The values that follow are results of earlier work, collected in patent US20090226898A1, “Mitochondrial markers of ischemia” (Inverness Medical Switzerland GMBH, priority 2005, published 2009).

Amino acid sequences for entries named in this document (tags omitted). A change or cut given only in a name is not applied to a line headed by its entry.
UniProt P25090: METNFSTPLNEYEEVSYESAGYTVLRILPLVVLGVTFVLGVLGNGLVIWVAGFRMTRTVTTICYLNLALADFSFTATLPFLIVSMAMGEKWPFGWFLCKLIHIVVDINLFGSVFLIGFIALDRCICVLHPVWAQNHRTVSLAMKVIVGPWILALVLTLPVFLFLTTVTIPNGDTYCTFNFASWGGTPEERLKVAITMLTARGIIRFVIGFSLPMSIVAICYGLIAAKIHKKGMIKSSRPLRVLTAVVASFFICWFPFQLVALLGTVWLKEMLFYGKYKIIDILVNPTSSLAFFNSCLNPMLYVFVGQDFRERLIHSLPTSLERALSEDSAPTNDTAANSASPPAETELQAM

The series has as its target FPR-like 1 (FPRL1) (Homo sapiens, UniProt P25090).

In the case of formyl-Met-Leu-Phe [fMLP], the receptor activation entry is listed as “only activated by high (micromolar) concentrations”.
